{"source": "paper PMC5799093", "about": "“Proceedings of Réanimation 2018, the French Intensive Care Society International Congress” (Annals of Intensive Care, 2018)", "experiment": "Post hoc analysis of EPO-ACR-02 trial: kidney injury after OHCA (P-157)"}
{"substance": "erythropoietin", "values": [{"measurement": "patients with AKI (KDIGO) at the 48th hour", "setting": "5 i.v. injections of 40,000 units 12 h apart, control 54.4%, p = 0.74", "result": 52.8, "unit": "%"}, {"measurement": "patients with glomerular filtration rate lower than 75 mL min 1.73 m^2 at day-28", "setting": "control 14.8%, p = 0.25", "result": 28, "unit": "%"}, {"measurement": "hematopoietic effects or serious adverse events versus control", "setting": "in vivo", "result": "no significant difference"}, {"measurement": "proportion of patients with AKI through ICU discharge versus control", "setting": "in vivo", "result": "no significant difference"}]}
